Laboratory results: patent US4711902A, “Medicament formulation” (Bayer Aktiengesellschaft, priority 1983, dated 1987)
Where two headings read alike, the source gives them in different places.

Details: triglycerides 70% caprylic, 30% capric acid, lipid content 20%, room temperature

Question: Which results are given for COCCOC(=O)C1=C(C)NC(C)=C(C(=O)OC(C)C)C1c1cccc([N+](=O)[O-])c1 (stereo not shown) [Nimodipine]?
Answer: Solubility of nimodipine in the emulsion of esters principally of medium chain-length fatty acids (benzyl alcohol 0% W/W): 0.16%; Solubility of nimodipine in the emulsion of esters principally of medium chain-length fatty acids (benzyl alcohol 2% W/W): 0.22%; Solubility of nimodipine in the emulsion of esters principally of medium chain-length fatty acids (benzyl alcohol 4% W/W): 0.36%; Solubility of nimodipine in the emulsion of esters principally of medium chain-length fatty acids (benzyl alcohol 5% W/W): 0.46%
